Measured values as given in PubChem BioAssay AID504357 (The Scripps Research Institute Molecular Screening Center, 2011).
Only a part is listed here, and it is no random draw. The source made the active and inactive calls. Rule as the data show it: active = inhibition above about 22% (passing the limit was not always enough); inactive = the rest.

Sequences of proteins named here, by UniProt entry; tags and fusion partners are left off.
UniProt P35372, whole entry, looked up: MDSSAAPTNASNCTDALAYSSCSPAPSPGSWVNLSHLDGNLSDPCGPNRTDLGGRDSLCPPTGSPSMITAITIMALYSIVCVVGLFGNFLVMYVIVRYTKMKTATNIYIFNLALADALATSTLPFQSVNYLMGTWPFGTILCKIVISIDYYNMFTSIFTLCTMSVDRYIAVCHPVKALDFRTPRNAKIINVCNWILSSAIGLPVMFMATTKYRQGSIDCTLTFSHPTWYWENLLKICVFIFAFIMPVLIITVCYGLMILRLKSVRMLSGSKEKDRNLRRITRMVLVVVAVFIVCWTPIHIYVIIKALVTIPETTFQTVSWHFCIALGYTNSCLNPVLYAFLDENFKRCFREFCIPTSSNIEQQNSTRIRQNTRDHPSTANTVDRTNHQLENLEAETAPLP
UniProt P41143, whole entry, looked up: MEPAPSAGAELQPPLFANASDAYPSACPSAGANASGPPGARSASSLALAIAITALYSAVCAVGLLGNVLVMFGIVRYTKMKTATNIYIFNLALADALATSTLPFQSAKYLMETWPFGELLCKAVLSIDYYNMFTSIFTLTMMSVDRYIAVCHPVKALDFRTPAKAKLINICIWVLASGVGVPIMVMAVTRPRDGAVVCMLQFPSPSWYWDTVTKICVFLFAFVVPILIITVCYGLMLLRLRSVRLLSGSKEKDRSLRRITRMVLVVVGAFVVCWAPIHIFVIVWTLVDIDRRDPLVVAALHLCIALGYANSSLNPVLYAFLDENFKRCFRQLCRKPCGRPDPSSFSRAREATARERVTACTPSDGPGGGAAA

Target: Mu-type opioid receptor (Homo sapiens) + Delta-type opioid receptor (Homo sapiens) (UniProt P35372+P41143)
Assay: inverse agonists of MOR-DOR heterodimerization, primary screen, cell-based, luminescence (AID 504357);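 also: 0% = cells with DMSO and 100% = wells without cells with DMSO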
Details: cell-based MOR-DOR heterodimer luminescence, inverse agonism; at 9.3 µM; hits give high values

| Structure (SMILES) | inhibition |
| --- | --- |
| c1nnnn1CCn1cnnn1 | inactive: 9.06% |
| CCN(CC)C(=O)CSc1nc2ccccc2n1CC(=O)N1CCN(c2ccccc2OC)CC1 | inactive: -4.56% |
| O=C(CCCCCNC(=O)N1CCn2c1nc1ccccc12)NCc1ccccc1 | inactive: 19.9% |
| CCNC(=O)Cn1cnc2c1c(=O)n(C)c(=O)n2C | inactive: -9.57% |
| CSc1nc2ccccc2n1CC(=O)Nc1cc(C(F)(F)F)ccc1N1CCOCC1 | inactive: 22.4% |
| CCOc1ccc(CCNC(=O)Cn2c(-c3nonc3N)nc3ccccc32)cc1OCC | inactive: 10.5% |
| CCN(CC)CCn1c(NCc2nc3ccccc3n2Cc2ccccc2)nc2ccccc21 | inactive: -90% |
| CN(C)Cc1ccc(-c2nc3cccc4c3n2CCNC4=O)cc1 | inactive: 17% |
| COc1ccc(-c2ccc3c(c2)[C@@H]2C[C@H](N(C)C(=O)C(C)(C)C)[C@H]([C@H](C)O)C(=O)N2CC3)cc1 | inactive: -2.96% |
| O=C(Cn1c(CO)nc2ccccc21)Nc1cc(C(F)(F)F)ccc1N1CCOCC1 | inactive: -0.9% |
| Cc1ccc(NC(=O)Cn2c(/C=C/c3ccccc3)nc3ccccc32)cc1C | inactive: -13.7% |
| CCN(C(=O)Cn1c(Cl)nc2c1c(=O)n(C)c(=O)n2C)C1CCCCC1 | inactive: 5.23% |
| CCCC(=O)Nc1ccc2c(c1)nc1n2CCN(C2CCCCC2)C1 | inactive: 6.14% |
| CC(C)[C@H](NC(=O)N1CCn2c1nc1ccccc12)C(=O)N[C@@H](Cc1ccccc1)C(=O)O | inactive: 13.5% |
| CCOC(=O)Cn1c(=O)oc2cc(S(=O)(=O)N3CCn4c3nc3ccccc34)ccc21 | inactive: -0.16% |
| O=C(Cn1cnc2ccccc21)N/N=C/c1ccccc1 | inactive: 6.65% |
| Cc1ccc(-c2csc(N3CCC[C@@H]3C(=O)NCCn3c(-c4ccncc4)nc4ccccc43)n2)cc1 | inactive: -21.7% |
| CCS(=O)(=O)c1nc2ccccc2n1CC(=O)N1CCCCC1 | inactive: 17.4% |
| CCc1ccc(NC(=O)Cn2cnc3c(=O)n(C)c(=O)n(C)c32)cc1 | inactive: -3.33% |
| CC(C)C(=O)NC(Sc1ccccc1)C(Cl)(Cl)Cl (centres undefined) | inactive: -18.5% |
| c1ccc(CNc2nc3ccccc3n2CCN2CCOCC2)nc1 | inactive: 6.93% |
| O=P(Nc1nccs1)(c1ccccc1)c1ccccc1 | inactive: 13.6% |
| Cn1c(=O)n(CC(=O)N2CCOCC2)c2ccccc21 | inactive: 7.75% |

| Structure (SMILES) | inhibition |
| --- | --- |
| CC(C)c1ccccc1NC(=O)Cn1c(-c2ccccc2Cl)nc2ccccc21 | inactive: 11.7% |
| CC(C)C[C@H](NC(=O)N1CCn2c1nc1ccccc12)C(=O)N[C@H](Cc1ccccc1)C(=O)O | inactive: 11.8% |
| CCC(C(=O)NC1CCCCC1)n1c(SCc2cccc(F)c2)nc2ccncc21 (centres undefined) | inactive: -4.05% |
| CC(/C=N/NC(=O)Cn1cnc2c1c(=O)n(C)c(=O)n2C)=C\c1ccccc1 | inactive: 8.43% |
| O=C(Cn1cnc2c(OCc3ccccc3)ncnc21)NCC1CCCO1 (centres undefined) | inactive: 15.5% |
| Cn1c(=O)c2ncn(CC(=O)N/N=C/c3ccco3)c2n(C)c1=O | inactive: 4.96% |
| COc1ccc(OCC(O)Cn2c(=N)n(CCN3CCCCC3)c3ccccc32)cc1 (centres undefined) | inactive: 11.4% |
| C[C@@H](NC(=O)Cn1cnc2c(OCc3ccccc3)ncnc21)c1cccc2ccccc12 | inactive: -13.1% |
| N#CCCN1CCn2c1nc1ccccc12 | inactive: 7% |
| O=C(c1cccs1)N1CCn2c1nc1ccccc12 | inactive: 8.41% |
| COc1ccc(NC(=O)CN(C)C(=O)Cn2cnc3c2c(=O)n(C)c(=O)n3C)cc1 | inactive: 6.52% |
| CC(C)C[C@H](NC(=O)N1CCn2c1nc1ccccc12)C(=O)NC1CC1 | inactive: 9.74% |
| CCN(CC)CCn1c(=N)n(CC(O)c2ccc(OC)c(OC)c2)c2ccccc21 (centres undefined) | inactive: -28.8% |
| CCOCCn1c(=O)c2c(nc3n2CCN3c2ccc(C)cc2)n(C)c1=O | inactive: 13.5% |
| Cc1ccccc1Oc1ccc2c(c1)[C@@H]1C[C@H](N(C)C(=O)NC3CCCCC3)[C@H]([C@H](C)O)C(=O)N1CC2 | inactive: 2.93% |
| CC1CCCC(C)N1C(=O)Cn1c(SCC(=O)Nc2ccc3c(c2)OCO3)nc2ccccc21 (centres undefined) | inactive: 5.66% |
| Cn1c(=O)c2c(ncn2CC(=O)N2CCN(S(=O)(=O)c3ccccc3)CC2)n(C)c1=O | inactive: 7.95% |
| c1ccc2c(c1)nc1n2CCN1CCN1CCCC1 | inactive: 13.5% |
| COC(=O)[C@H](Cc1ccccc1)NC(=O)Cn1cnc2c(NCc3ccccc3)ncnc21 | inactive: 17.6% |
| CC(NC(=O)Cn1c(NCCO)nc2ccccc21)c1ccccc1 (centres undefined) | inactive: 10.2% |
| Cn1c(=O)c2c(nc(CN3CCN(Cc4ccccc4)CC3)n2CCN2CCOCC2)n(C)c1=O | inactive: 9.49% |
| COc1ccc(OC)c(CNc2nc3ccccc3n2CCN2CCCCC2)c1 | inactive: 3.13% |
| O=C(Cn1cnc2ccccc21)Nc1ccccc1-c1ccccc1 | inactive: 2.25% |

| Structure (SMILES) | inhibition |
| --- | --- |
| CCSc1nc2ccccc2n1CC(N)=O | inactive: 10.2% |
| Cc1ccc2c(c1)C1CN(C)CCC1N2S(=O)(=O)c1ccc(C(C)C)cc1 (centres undefined) | inactive: -7.36% |
| Brc1cccc(CNc2nc3ccccc3n2CCN2CCCCC2)c1 | inactive: 7.41% |
| CCC(C)N(C(=O)Cn1c(Cl)nc2c1c(=O)n(C)c(=O)n2C)C1CCS(=O)(=O)C1 (centres undefined) | inactive: 5.48% |
| COc1ccc(CNc2nc3ccccc3n2CCN2CCCCC2)cc1 | inactive: 7.16% |
| COCCN1CCn2c(nc3cc(NS(C)(=O)=O)ccc32)C1 | inactive: 6.55% |
| Cc1cccc(OCC(O)Cn2c(=N)n(CCN3CCCCC3)c3ccccc32)c1 (centres undefined) | inactive: -5.04% |
| O=C(Cn1cnc2ccccc21)N/N=C/c1ccco1 | inactive: 13.8% |
| CCc1cccc(C)c1NC(=O)CSc1nc2ccccc2n1CC(=O)N(C)C | inactive: 10.8% |
| CCN1C(=O)CC(n2c(C)nc3ccccc32)C1=O (centres undefined) | inactive: 11.9% |
| Cn1c(=O)c2c(nc(CN3CCN(C(c4ccccc4)c4ccccc4)CC3)n2CC(N)=O)n(C)c1=O | inactive: -1.97% |
| CCOC(=O)c1cccc(NC(=O)Cn2cnc3c2c(=O)n(C)c(=O)n3C)c1 | inactive: 6.26% |
| CC(=O)NC(C)c1nc2ccccc2n1CC(=O)NC(C)CCc1ccccc1 (centres undefined) | inactive: 4.45% |
| Nc1nonc1-c1nc2ccccc2n1CC(=O)N/N=C/c1ccc(-c2ccccc2C(=O)O)o1 | inactive: 14.9% |
| COc1ccc(-c2nn(-c3ccccc3)cc2C(=O)N2c3ccc(C)cc3C3CN(C)CCC32)cc1 (centres undefined) | inactive: 0.01% |
| Cn1c(=O)[nH]c(=O)c2c1nc(N1CCCCCC1)n2CC(N)=O | inactive: 14.5% |
| CCCn1c(=O)c2c(nc3n2CCN3Cc2ccco2)n(C)c1=O | inactive: -1.72% |
| COc1ccc(C[C@H](C)NC[C@@H](O)c2ccc(O)c(NC=O)c2)cc1 | inactive: 3.63% |
| COc1ccc(Cc2nnc(NC(=O)Cn3cnc4c3c(=O)n(C)c(=O)n4C)s2)cc1OC | inactive: 1.81% |
| CC(/C=N/NC(=O)Cn1cnc2ccccc21)=C\c1ccccc1 | inactive: 3.21% |
| O=S(=O)(c1ccc(Cl)cc1)N1CCn2c1nc1ccccc12 | inactive: 1.69% |
| CSCC[C@H](NC(=O)N1CCn2c1nc1ccccc12)C(=O)NCc1ccc2c(c1)OCO2 | inactive: 6.09% |
| O=S(=O)(c1ccccc1)c1nnn2c1nc(NC1CCN(Cc3ccccc3)CC1)c1cc(Cl)ccc12 | inactive: -102% |

| Structure (SMILES) | inhibition |
| --- | --- |
| CCOc1ccc(CNc2nc3ccccc3n2CCN2CCOCC2)cc1 | inactive: -2.43% |
| O=C(NC1CCCCC1)C(c1ccccc1)N(Cc1ccco1)C(=O)Cn1cnc2ccccc21 (centres undefined) | inactive: 1.51% |
| CSCC[C@H](NC(=O)N1CCn2c1nc1ccccc12)C(=O)NC1CC1 | inactive: 12.9% |
| Cc1ccc(C(=O)Cn2c(=N)n(CCN3CCOCC3)c3ccccc32)cc1 | inactive: -31.5% |
| CCN(CC)c1ccc(NC(=O)Cn2c(C(C)NC(=O)c3ccc(C)cc3)nc3ccccc32)cc1 (centres undefined) | inactive: -8.31% |
| COC(=O)c1ccc(NC(=O)Cn2c(-c3nonc3N)nc3ccccc32)cc1 | inactive: 13.5% |
| Cc1ccc(OCC(O)Cn2c(=N)n(CCN3CCOCC3)c3ccccc32)cc1 (centres undefined) | inactive: 3.57% |
| N=c1n(CCN2CCCCC2)c2ccccc2n1CC(O)COc1ccccc1 (centres undefined) | inactive: 7.8% |
| Cn1c(=O)[nH]c(=O)c2c1nc(CN1CCN(Cc3ccccc3)CC1)n2CC(N)=O | inactive: 14% |
| Cc1csc2ncnc(NC3CCN(Cc4ccccc4)CC3)c12 | inactive: 1.52% |
| CCc1nc2c(n1)c1c(non1O)c1c2no[n+]1[O-] | inactive: -34.7% |
| O=[N+]([O-])c1cc([N+](=O)[O-])c(CCNc2ccccc2)c([N+](=O)[O-])c1 | inactive: -35.6% |
| COC(=O)c1ccccc1NC(=O)Cn1cnc2cc(C)c(C)cc21 | inactive: -2.42% |
| CSCC[C@H](NC(=O)N1CCn2c1nc1ccccc12)C(=O)N[C@H](Cc1ccccc1)C(=O)O | inactive: 16% |
| Cc1nc2ccccc2n1CC(=O)N/N=C/c1cccs1 | inactive: 13.7% |
| O=[N+]([O-])c1ccc(NC2CCN(Cc3ccccc3)CC2)c([N+](=O)[O-])c1 | inactive: 3.75% |
| CC1CC(C)CN(C(=O)Cn2c(-c3nonc3N)nc3ccccc32)C1 (centres undefined) | inactive: 8.58% |
| Cc1ccc(NP(=O)(Oc2ccccc2)Oc2ccccc2)nc1 | inactive: 14.8% |
| Nc1nonc1-c1nc2ccccc2n1CC(=O)N1CCCCC1 | inactive: -0.2% |
| Cc1ccc(C)c(CN2CCC(n3nnc4cc(F)ccc43)CC2)c1 | inactive: -249% |
